Results reported in patent EP4825842A1, “DIVALENT BET DECOMPOSITION AGENT AND TARGETING MOLECULE-DRUG COMPLEX” (dated 2026).

Legend:
SU-DHL-4 cells = assay: Test Example 1: in vitro cell survival inhibitory effect of compound using SU-DHL-4 cell line; conditions: read-out: SU-DHL-4 IC50; 50% rate of inhibition of cell survival; 72 hours; Cell Counting Kit-8
Protocol: SU-DHL-4 cells (Code No. ACC 495, Deutsche Sammlung von Mikroorga nismen und Zellkulturen GmbH; DSMZ) were cultured in RPMI1640 medium (Code No. 11875-093, Thermo Fisher Scientific Inc.) supplemented with heat-inactivated fetal bovine serum (FBS: Code No. 10099-148, Thermo Fisher Scientific Inc.) in an amount that attained a final concentration of 10 vol% and a penicillin/streptomycin solution (PS: Code No. 15140-122, Thermo Fisher Scientific Inc.) in an amount that attained a final concentration of 1 vol% at 37°C using a CO2 incubator (95% air, 5% CO2). The cells were passaged at intervals of twice per week so as to maintain a cell density of 1 × 10 ^6 cells/mL or less in a volume of 20 to 40 mL.
The cultured SU-DHL-4 cells were seeded at 2000 cells/well to a transparent 384-well plate (Code No. 781182, Greiner bio-one). The cells thus seeded were precultured at 37°C for 18 to 25 hours in a CO2 incubator. Subsequently, a 1, 0.1, or 0.01 mmol/L solution of a test compound in DMSO was prepared, and nine serial dilutions were prepared at a dilution factor of √10 so as to attain 200 times the final concentration using the RPMI1640 medium containing FBS and PS, and added in a volume of 1/200 to each well. The final concentration of DMSO was set to 0.1 vol% for this preparation. The cells thus supplemented with the test compound were cultured at 37°C for 72 hours in a CO2 incubator. Subsequently, 0.020 mL of a solution of Cell Counting Kit-8 (Code No. CK04, Dojindo Laboratories) diluted 2-fold or 4-fold with phosphate-buffered saline (PBS) was added to each well. Color reaction was performed at 37°C for 2 to 3 hours in a CO2 incubator, followed by absorbance measurement at a wavelength of 450 nm using SpectraMax 340PC (Molecular Devices, LLC).

HIP-009 cells = assay: Test Example 2: in vitro cell survival inhibitory effect of compound using nerve cell (HIP-009 cell); conditions: for Nerve selectivity: calculated from HIP-009 IC50 and SU-DHL-4 IC50; for IC50: read-out: HIP-009 IC50, 50% rate of inhibition of cell survival, differentiated nerve cells, 7 days, total area occupied by the cells; for Degree of improvement (vs. comparative compound): neural selectivity of each compound / neural selectivity of the comparative compound
Protocol: HIP-009 cells (Code No. 23002-009, Hippocampal Neural Stem Cells, Cosmo Bio Co., Ltd.) were cultured in Neural Stem Cell Growth Media (Code No. 21001-250, Cosmo Bio Co., Ltd.) at 37°C for 2 to 4 weeks using a CO2 incubator (95% air, 5% CO2) until confluency with half-volume media exchanges once or twice per week, then allowed to differentiate in Neuro Transition Media (Code No. 21003-250, Cosmo Bio Co., Ltd.), and seeded at 5000 to 10000 cells/0.04 mL/well to a 384-well plate (Code No. 781091, Greiner bio-one) using Neural Differentiation media (Code No. 210040250, Cosmo Bio Co., Ltd.). Neurites were elongated with half-volume media exchanges once or twice per week. Each medium was supplemented with supplements as described in the instruction and used after being allowed to pass through a 0.22 µm filter. The cells were used in evaluation 3 weeks or later after seeding to the 384-well plate by confirming the elongated neurites.
In order to detach the cells, Trypsin (Code No. 41004-100, Cosmo Bio Co., Ltd.) was added thereto, and the mixture was incubated at 37°C for 3 to 10 minutes using a CO2 incubator (95% air, 5% CO2). Cell detachment reaction was stopped by the addition of Trypsin Inhibitor (Code No. 41005-100, Cosmo Bio Co., Ltd.) in an equal amount.
The 384-well plate was subjected to the following operation before cell seeding. A poly(ethylenimine) solution (Code No. 03880-100ML, Sigma-Aldrich Co., LLC) was diluted with 1 × Borate Buffer (dilution of Pierce 20 × Borate Buffer (Code No. 28341, Thermo Fisher Scientific Inc.)) to prepare a 0.07% poly(ethylenimine) solution, 0.02 mL of which was added to each well and incubated at 37°C for 1 hour. Then, the plate was washed twice with 0.1 mL of PBS and once with 0.1 mL of Otsuka distilled water and left standing overnight for drying. 0.02 mL of Laminin from Engelbreth-Holm-Swarm murine sarcoma basement membrane (Code No. L2020-1MG, Sigma-Aldrich Co., LLC) diluted into 0.0033 mg/mL with PBS was added to each well and incubated at 37°C for 1 hour. Laminin was sucked out, then 0.1 mL of Otsuka distilled water was added to the plate until just before seeding, and the plate was left standing.
The cells of day 0 were photographed using Cell3iMager duos (SCREEN Holdings Co., Ltd.) before addition of a test compound, and the total area occupied by the cells was calculated. Nine serial dilutions of the test compound (10000 mmol/L solution in DMSO) were prepared at a dilution factor of √10 so as to attain 5 times the final concentration using the Neural Differentiation Media, and added in a volume of 1/5 to each well. The final concentration of DMSO was set to 0.1 vol% for this preparation. The cells thus supplemented with the test compound were cultured at 37°C for 7 days in a CO2 incubator (95% air, 5% CO2). The cells of day 7 were photographed using Cell3iMager duos, and the total area occupied by the cells was calculated. […] Rate of inhibition of cell survival(%) = 100−A/B × 100 [formula] • A: Total area of the cells of day 7 • B: Total area of the cells of day 0
The results were as shown in the column "HIP-009 IC50 (nmol/L)" in Table 33 below. The selectivity of each compound for nerve cells was calculated according to the following formula using the results thus obtained and the results of Test Example 1. [formula]
Degree of improvement (vs. the comparative compound) = Neural selectivity of each compound / Neural selectivity of the comparative compound

SMILES | IC50 (SU-DHL-4 cells) | Nerve selectivity (HIP-009 cells) | IC50 (HIP-009 cells) | Degree of improvement (vs. comparative compound) (HIP-009 cells)
CCC(=O)N1c2ccccc2[C@H](Nc2ccc(NC(=O)CNC(=O)Nc3ccc(NC(=O)CN4CCN(C)C(=O)[C@H]4C)cc3)cc2)C[C@@H]1C | 0.3 nM | 1100 | 340 nM | –
CCC(=O)N1c2ccccc2[C@H](Nc2ccc(NC(=O)CNC(=O)Nc3ccc(OCCN4CCC(=O)N(C)CC4)c(F)c3)cc2)C[C@@H]1C | 0.016 nM | 1000 | 16 nM | –
CCC(=O)N1c2ccccc2[C@H](Nc2ccc(NC(=O)CNC(=O)Nc3ccc(OCCc4ccc(C)nc4)cc3)cc2)C[C@@H]1C | 0.17 nM | 1200 | 200 nM | –
CCC(=O)N1c2ccccc2[C@H](Nc2ccc(NC(=O)CNC(=O)Nc3ccc(OCCN4CCN(C(C)=O)CC4)c(F)c3)cc2)C[C@@H]1C | 0.028 nM | 2800 | 80 nM | –
CCC(=O)N1c2ccccc2[C@H](Nc2ccc(NC(=O)CNC(=O)Nc3ccc(OCCN4CCN(C(C)=O)[C@H](CO)C4)cc3)cc2)C[C@@H]1C | 0.92 nM | 4600 | 4200 nM | 35
CCC(=O)N1c2ccccc2[C@H](Nc2ccc(NC(=O)CNC(=O)Nc3ccc(OCCN4CC(=O)N(C)C[C@H]4C)cc3)cc2)C[C@@H]1C | 0.94 nM | 2300 | 2100 nM | 18
CCC(=O)N1c2ccccc2[C@H](Nc2ccc(NC(=O)CNC(=O)Nc3ccc(OCCN4CCN5C(=O)CC[C@H]5C4)cc3F)cc2)C[C@@H]1C | 0.033 nM | 2200 | 71 nM | –
CCC(=O)N1c2ccccc2[C@H](Nc2ccc(NC(=O)CNC(=O)Nc3ccc(CCCN4CCN(C)C(=O)[C@H]4C)cc3)cc2)C[C@@H]1C | 0.26 nM | 1000 | 270 nM | –
CCC(=O)N1c2ccccc2[C@H](Nc2ccc(NC(=O)CNC(=O)Nc3ccc(OCCN4CCCN(C)C(=O)C4)cc3)cc2)C[C@@H]1C | 0.29 nM | 8700 | 2500 nM | 67
CCC(=O)N1c2ccccc2[C@H](Nc2ccc(NC(=O)CNC(=O)Nc3ccc(OCCN4CC(=O)N(C)C[C@@H]4C)cc3)cc2)C[C@@H]1C | 0.19 nM | 4900 | 900 nM | 38
CCC(=O)N1c2ccccc2[C@H](Nc2ccc(NC(=O)CNC(=O)Nc3ccc(OCCN4C[C@@H]5C[C@H]4CN5C(C)=O)cc3)cc2)C[C@@H]1C | 1.5 nM | 930 | 1400 nM | 7.2
CCC(=O)N1c2ccccc2[C@H](Nc2ccc(NC(=O)CNC(=O)Nc3ccc(OCCN4CCN(C(C)=O)C[C@@H]4C)cc3)cc2)C[C@@H]1C | 0.081 nM | 6900 | 560 nM | 53
CCC(=O)N1c2ccccc2[C@H](Nc2ccc(NC(=O)CNC(=O)Nc3ccc(OCCN4CCN(C(C)=O)C[C@@H]4C)c(F)c3)cc2)C[C@@H]1C | 0.028 nM | 2500 | 69 nM | –
CCC(=O)N1c2ccccc2[C@H](Nc2ccc(NC(=O)CNC(=O)Nc3ccc(OCCN4CCN(C(C)=O)CC4(C)C)cc3)cc2)C[C@@H]1C | 2 nM | 1100 | 2100 nM | 8.5
CCC(=O)N1c2ccccc2[C@H](Nc2ccc(NC(=O)CNC(=O)Nc3ccc(CCCN4CCC(=O)N(C)CC4)cc3)cc2)C[C@@H]1C | 0.21 nM | 600 | 120 nM | –
CCC(=O)N1c2ccccc2[C@H](Nc2ccc(NC(=O)CNC(=O)Nc3ccc(OCCN4CCN(C(=O)C5CC5)CC4)cc3)cc2)C[C@@H]1C | 0.52 nM | 1500 | 760 nM | 12
CCC(=O)N1c2ccccc2[C@H](Nc2ccc(NC(=O)CNC(=O)Nc3ccc(OCCc4cncc(C)c4)cc3)cc2)C[C@@H]1C | 0.38 nM | 760 | 290 nM | –
CCC(=O)N1c2ccccc2[C@H](Nc2ccc(NC(=O)CNC(=O)Nc3ccc(OCCN4CCN(C)C(=O)[C@H]4C)cc3OC)cc2)C[C@@H]1C | 0.13 nM | 2000 | 270 nM | –
CCC(=O)N1c2ccccc2[C@H](Nc2ccc(NC(=O)CNC(=O)Nc3ccc(OCCN4CC(=O)N(C)[C@@H](C)C4)cc3)cc2)C[C@@H]1C | 3.4 nM | 660 | 2300 nM | 5.1
CCC(=O)N1c2ccccc2[C@H](Nc2ccc(NC(=O)CNC(=O)Nc3ccc(OCCN4CCN(C(C)=O)C[C@@H]4C)cc3F)cc2)C[C@@H]1C | 0.068 nM | 1700 | 120 nM | –
CCC(=O)N1c2ccccc2[C@H](Nc2ccc(NC(=O)CNC(=O)Nc3ccc(OCCN4CCC(=O)N(C)CC4)cc3F)cc2)C[C@@H]1C | 0.031 nM | 1500 | 47 nM | –
CCC(=O)N1c2ccccc2[C@H](Nc2ccc(NC(=O)CNC(=O)Nc3ccc(OCCN4CCN(CC)C(=O)C4)cc3)cc2)C[C@@H]1C | 0.99 nM | 1600 | 1600 nM | 12
CCC(=O)N1c2ccccc2[C@H](Nc2ccc(NC(=O)CNC(=O)Nc3ccc(OCCN4CC(=O)N(C)[C@H](C)C4)cc3)cc2)C[C@@H]1C | 0.42 nM | 2000 | 830 nM | 15
CCC(=O)N1c2ccccc2[C@H](Nc2ccc(NC(=O)CNC(=O)Nc3ccc(OCCN4CCN(C)C(=O)C4)cc3)cc2)C[C@@H]1C | 0.2 nM | 3000 | 600 nM | 23
CCC(=O)N1c2ccccc2[C@H](Nc2ccc(NC(=O)CNC(=O)Nc3ccc(OCCN4C[C@@H](C)N(C(C)=O)[C@@H](C)C4)cc3)cc2)C[C@@H]1C | 0.05 nM | 6300 | 320 nM | 48
